Here are results for one molecule from patent EP4847016A1, “PHARMACEUTICAL COMPOSITION, BLEPHAROSPASM TREATMENT AGENT, HYPERSENSITIVITY OR DYSTONIA TREATMENT AGENT, AND SYMPTOM MODEL MOUSE” (dated 2026).

One data set concerns blepharospasm patients. Briefly: Ophthalmic instillation in blepharospasm patients; subjective symptoms evaluated by visual analog scale (VAS) and multiple questionnaires. The method, then:
A 5-fold diluted solution was adjusted from a commercially approved tramadol injection solution (Tramadol Hydrochloride OD Tablets 25 mg "KO", Kotobuki Pharmaceutical Co., Ltd.), the diluted solution was subjected to suction filtration sterilization, dispensed and filled into ophthalmic solution bottles, and stored in a refrigerator. As quality testing, samples for quality inspection were extracted, tests were performed for drug assay, properties, pH, osmotic pressure ratio, sterility, insoluble foreign matter, and fine particles, and the pharmaceutical composition was transported and stored in the form of an eye drop as a pharmaceutical composition containing 1% tramadol, and was used in the following administration tests.
Ophthalmic instillation with the eye drops containing the 1% tramadol was administered to nine blepharospasm patients four times per day for one month. Subjective symptoms before and after administration were evaluated using the visual analog scale (VAS) and multiple questionnaires.

A further data set concerns symptom model mice. Briefly: Number of blinks in symptom model mice stressed by platform and air blowing. As to conditions: C57BL/6JJcl 38-week-old female mice, stress 4 hours per day for approximately 3 weeks; eye drops stopped on day 18, blinks measured for 1 minute on day 21; versus physiological saline; FIG. 1. How it is done: A symptom model mouse reproducing symptoms corresponding to blepharospasm was produced, the eye drops containing the tramadol were administered to the symptom model mouse, and the effect of the pharmaceutical composition due to alleviation of symptoms was verified.
Six C57BL/6JJcl, 38-week-old female mice were subjected to stress by a platform and air blowing, thereby producing symptom model mice in which symptoms corresponding to blepharospasm appeared.
An unstable suspension bridge platform made of a rod-shaped member suspended by a string was installed above a cage filled with water. The stress by the platform and air blowing was applied by placing the mice on the platform and blowing air from the front and rear directions using blowers (fans).
The stress was applied for 4 hours per day (excluding Saturdays and Sundays), and was continued for approximately 3 weeks.
In parallel with the stress environment, the eye drops containing tramadol similar to those of Test Example 1 were administered to three of these symptom model mice. The group of the other three mice was treated with physiological saline only. On day 18, administration of tramadol was stopped, and on day 21, the number of blinks was measured.
The number of blinks was measured by restraining awake mice and measuring the number of blinks for 1 minute.

Data set [1] has as its system mice not subjected to stress. Briefly: Number of blinks and general observation in mice not subjected to stress. The conditions noted are these: ophthalmic instillation once per day for 3 days, n=4 eyes each, versus physiological saline group, data not shown. The text has this:
When stress (risk factors) by the platform and air blowing overlap in mice, it has been confirmed by a preliminary separate test that a blepharospasm-like phenotype appears compared with mice not subjected to these stresses (not shown).

Setting [2] is: average for the nine cases, baseline before treatment.
The mark [3] stands for this setting: nine blepharospasm patients, ophthalmic instillation four times per day for one month, number of cases.

With `COc1cccc(C2(O)CCCCC2CN(C)C)c1` (centres unmarked), the “sensory hypersensitivity VAS after treatment” value with blepharospasm patients (average for the nine cases, after four times per day for one month, p = 0.003 vs before treatment) was found to be 36.9 ± 21.4. In the data set with blepharospasm patients (average for the nine cases, after four times per day for one month, p = 0.02 vs before treatment), the “motor symptoms total score after treatment” value came to 1.8 ± 1.2. For the same molecule, in the data set with blepharospasm patients (setting [2]), the “motor symptoms total score before treatment” value is 3.4 ± 1.4 and the “sensory hypersensitivity VAS before treatment” value came out at 56.9 ± 18.9. Also, in the data set with blepharospasm patients (setting [3]), the “both sensory hypersensitivity and motor symptoms improved” value is listed as “five of nine cases”; the “neither sensory hypersensitivity nor motor symptoms improved” value is “one of nine cases”; the “only motor symptoms improved” value is reported as “one of nine cases”; the “only sensory hypersensitivity improved” value is given as “two of nine cases”. Besides, in the data set with symptom model mice, the number of blinks entry was “significantly decreased”. For the same molecule, in data set [1], the number of blinks result was “no significant difference” and the “other difference in the eyes or the whole body” value is listed as “no other clear difference”.
